# Biological target: T1, CYP51Tb (Trypanosoma brucei brucei, UniProt Q385E8, L2A)
# Protein sequences, listed by entry. Tags and fused reporters are not part of them.
# UniProt Q385E8, whole entry L2A: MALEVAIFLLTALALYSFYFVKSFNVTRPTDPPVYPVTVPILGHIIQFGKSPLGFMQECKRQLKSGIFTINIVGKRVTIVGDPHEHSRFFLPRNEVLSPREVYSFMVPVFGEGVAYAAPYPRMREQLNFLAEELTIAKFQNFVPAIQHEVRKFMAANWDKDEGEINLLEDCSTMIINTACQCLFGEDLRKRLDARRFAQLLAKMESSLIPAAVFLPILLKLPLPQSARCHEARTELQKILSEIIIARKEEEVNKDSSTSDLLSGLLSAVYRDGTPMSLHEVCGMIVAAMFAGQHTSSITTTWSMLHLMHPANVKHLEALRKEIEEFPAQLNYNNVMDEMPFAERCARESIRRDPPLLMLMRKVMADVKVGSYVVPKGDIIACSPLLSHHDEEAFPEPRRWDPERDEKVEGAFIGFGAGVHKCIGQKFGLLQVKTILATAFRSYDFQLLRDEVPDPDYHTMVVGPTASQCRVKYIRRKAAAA
# T1 construct: His8 (C); made in house; host or cells: E. coli HMS174(DE3) co-transformed with pGro7 (GroES/GroEL)
# Assay: biochemical
# Format: binding
# Conditions: spectral titration, room temperature, pH 7.5
structure (smiles),measurement,value
"OC(Cn1cncn1)(Cn1cncn1)c1ccc(F)cc1F [Fluconazole, reference compound]",Kd,0.034 ± 0.014 µM
